According to US20250110116A1, “COMPOSITIONS AND METHODS FOR PRODUCING HAIR FOLLICLE STEM CELLS” (The Rockefeller University, priority 2023, published 2025):

System: cultured HFSCs
Test: Directed differentiation of cultured HFSCs to HS and IRS lineages (Cux1 reporters, GATA3, HOXC13)
Format: cell-based, mouse

B1: BMP2: bone morphogenetic protein (protein, UniProt P12643 283-396, looked up)
Bone morphogenetic protein 2: QAKHKQRKRLKSSCKRHPLYVDFSDVGWNDWIVAPPGYHAFYCHGECPFPLADHLNSTNHAIVQTLVNSVNSKIPKACCVPTELSAISMLYLDENEKVVLKNYQDMVVEGCGCR
R-spondins, BMP2 and BMP4 together
  lineages formed: directed HFSCs to form the hair shaft and inner root sheath lineages
Alongside Rspo
  Cux1 (IRS) and Cux1 (HS) reporter activity: most effective in upregulating reporter activity
